The results in this text go back to PMC7126369, “Identification of a selective inhibitor of IDH2/R140Q enzyme that induces cellular differentiation in leukemia cells” (Cell Communication and Signaling : CCS, 2020).

The target in one experiment is T1, IDH2/R140Q (Homo sapiens, UniProt P48735, R140Q).
T1 construct: FLAG (C); purchased BPS Bioscience
T1 sequence (P48735 40-452 R140Q): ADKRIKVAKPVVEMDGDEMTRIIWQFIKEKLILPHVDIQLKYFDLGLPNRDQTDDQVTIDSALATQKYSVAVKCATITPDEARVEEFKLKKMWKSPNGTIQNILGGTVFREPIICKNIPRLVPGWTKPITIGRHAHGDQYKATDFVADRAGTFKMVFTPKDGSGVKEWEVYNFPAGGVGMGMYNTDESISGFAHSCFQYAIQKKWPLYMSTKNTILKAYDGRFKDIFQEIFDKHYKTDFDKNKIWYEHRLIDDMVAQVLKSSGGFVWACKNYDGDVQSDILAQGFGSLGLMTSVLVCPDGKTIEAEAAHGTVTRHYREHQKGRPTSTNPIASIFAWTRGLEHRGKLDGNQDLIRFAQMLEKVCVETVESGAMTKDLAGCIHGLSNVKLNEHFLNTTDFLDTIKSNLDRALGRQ
As to the kind of experiment: Diaphorase/resazurin coupled NADPH depletion enzymatic assay, IDH2/R140Q homodimer. Type of experiment: biochemical. Particulars: read-out: IC50 for α-KG reduction. (Resazurin is reduced to fluorescent resorufin, in cell work by metabolically active cells.)

The target of another experiment is T2, IDH2/WT (Homo sapiens, UniProt P48735).
T2 construct: FLAG (C); purchased BPS Bioscience
T2 sequence (P48735 40-452): T1 sequence (P48735 40-452 R140Q) with Q101R
Kind of experiment: Diaphorase/resazurin coupled NADPH production enzymatic assay, IDH2/WT. Type of experiment: biochemical. Particulars: incubation time 16 h, read-out: IC50 for isocitrate to α-KG. On the procedure: The compounds were dissolved to a concentration of 20 mM in pure DMSO. Diaphorase/resazurin coupled NADPH deletion or production assays were used to measure the activity of IDH mutants or wild-type IDH (IDH/WT) enzymes. A mixture of IDH2/R140Q enzyme (0.60 μg/mL) and NADPH (30 μM) was prepared in 40 μL assay buffer that consists of 10 mM MgCl2, 150 mM NaCl, 50 mM K2HPO4/KH2PO4 (pH 7.5), 2 mM β-mercapoethanol, 0.05% BSA and 10% glycerol. Afterwards, 20 μL of the gradient concentrations of compound dilution were added to this mixture and incubated at 25 °C for 1 h or 16 h. Then, 20 μL of 4X assay buffer containing 16 mM α-KG was added to initiate the enzymatic reaction, which was allowed to proceed for 1 h at 25 °C. Likewise, the IDH2/WT enzyme (0.12 μg/mL) was mixed with NADP (50 μM) in 40 μL assay buffer, after which compound dilutions were added and incubated as the IDH2/R140Q enzyme assay. Further, 20 μL of 4X assay buffer containing 0.6 mM isocitrate was used for enzymatic reaction. Finally, for both the IDH2/R140Q and IDH2/WT enzymes assays, 40 μL of 3X detection buffer (assay buffer with 45 μg/mL diaphorase and 90 μM resazurin) was added to stop the reaction and incubated for 10 min at room temperature. Then, 40 μL of the resulting mixture was added into a 384-well dark plate in duplicate and the absorbance was measured using Envision (Ex/Em = 544/590 nm).

Molecules are shown by their SMILES. Substitutions are numbered along the chain they refer to. Read-outs that look alike come from different tables or passages of the source.

Consider `O=C(Nc1cccc(C(F)(F)F)c1)Nc1cc(S(=O)(=O)NC2CC2)ccc1-c1ccsc1` [AGI-6780, reference compound], for which the IC50 (usually the midpoint of a concentration-inhibition curve) at IDH2/R140Q (incubation time 1 h) is 16.4 nM; at IDH2/R140Q (incubation time 16 h) it was 12.8 nM; at IDH2/WT, 99.9 nM.
